From PMC7114863 (Journal of Hepatology, 2009)

Experiments:
[1] = system: J6/JFH chimeric HCV reporter virus (J6/JFH-Rluc2a-FLAG); test: Antiviral assay with HCVcc virus in Huh-Lunet cells; assay type: cell-based, HCV genotype 2a; settings: luciferase assay, three days
[2] = system: HCV replicon in Huh 9-13 cells; test: HCV replicon clearance-rebound assay; assay type: cell-based; settings: 100 IU/ml
HuH6 replicons = test: Anti-HCV replicon assay in HuH6 cells; settings: RT-qPCR; mean ± SD

Substance: IFNα 2b: recombinant IFNα 2b (intron® A) purchased from Schering Plough
- Anti-HCV activity EC50, J6/JFH [1]: 1.9 ± 0.07 IU/ml
- passages until clearance of replicon, drug alone [2]: 3 passages
- Anti-HCV activity EC50, HuH6 (HuH6 replicons): 22 ± 5.4 IU/ml
